Measured values: ChEMBL document CHEMBL1154733, “Synthesis and in vitro opioid receptor functional antagonism of methyl-substituted analogues of (3R)-7-hydroxy-N-[(1S)-1-{[(3R,4R)-4-(3-hydroxyphenyl)-3,4-dimethyl-1-piperidinyl]methyl}-2-methylpropyl]-1,2,3,4-tetrahydro-3-isoquinolinecarboxamide (JDTic)” (J Med Chem, 2009)

Sequences of proteins named here, by UniProt entry; tags and fusion partners are left off.
UniProt P35372, whole entry: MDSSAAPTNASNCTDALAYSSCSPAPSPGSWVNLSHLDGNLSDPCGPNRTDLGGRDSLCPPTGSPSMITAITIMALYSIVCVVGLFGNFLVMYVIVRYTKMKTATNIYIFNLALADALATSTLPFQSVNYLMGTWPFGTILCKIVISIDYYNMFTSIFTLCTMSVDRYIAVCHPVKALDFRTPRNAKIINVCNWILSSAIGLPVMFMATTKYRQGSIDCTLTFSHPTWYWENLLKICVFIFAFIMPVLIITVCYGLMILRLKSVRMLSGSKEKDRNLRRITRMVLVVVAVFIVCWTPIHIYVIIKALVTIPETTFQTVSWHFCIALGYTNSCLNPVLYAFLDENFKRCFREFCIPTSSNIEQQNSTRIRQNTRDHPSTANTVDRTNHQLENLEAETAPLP
UniProt P41143, whole entry: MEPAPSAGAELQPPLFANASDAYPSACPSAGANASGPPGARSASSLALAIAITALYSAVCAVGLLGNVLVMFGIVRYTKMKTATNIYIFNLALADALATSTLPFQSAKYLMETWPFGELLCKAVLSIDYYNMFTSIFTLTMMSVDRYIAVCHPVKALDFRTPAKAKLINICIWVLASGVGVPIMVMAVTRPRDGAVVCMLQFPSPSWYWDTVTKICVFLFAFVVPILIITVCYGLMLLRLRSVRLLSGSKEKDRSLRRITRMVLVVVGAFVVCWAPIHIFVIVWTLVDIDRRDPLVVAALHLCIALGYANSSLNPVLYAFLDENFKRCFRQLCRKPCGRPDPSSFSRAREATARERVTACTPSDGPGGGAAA

Experiments:
[1] = biological target: Mu-type opioid receptor (Homo sapiens) (UniProt P35372); experiment: Antagonist activity at human cloned mu opioid receptor expressed in CHO cells assessed as inhibition of DAMGO-stimulated [35S]GTPgammaS binding; assay type: functional, cell-based
[2] = biological target: Delta-type opioid receptor (Homo sapiens) (UniProt P41143); experiment: Antagonist activity at human cloned delta opioid receptor expressed in CHO cells assessed as inhibition of DPDPE-stimulated [35S]GTPgammaS binding; assay type: functional, cell-based

| SMILES | Ke [1] [nM] | Ke [2] [nM] |
| --- | --- | --- |
| COc1cccc([C@]2(C)CCN(C[C@@H](NC(=O)[C@@]3(C)Cc4ccc(OC)cc4CN3)C(C)C)C[C@@H]2C)c1 | 1450 | – |
| COc1ccc2c(c1)CN(C)[C@@](C)(C(=O)N[C@H](CN1CC[C@@](C)(c3cccc(O)c3)[C@@H](C)C1)C(C)C)C2 | – | 117 |
| COc1cccc([C@]2(C)CCN(C[C@@H](NC(=O)[C@@]3(C)Cc4ccc(O)cc4CN3)C(C)C)C[C@@H]2C)c1 | 123 | – |
| CC[C@H](C)[C@@H](CN1CC[C@@](C)(c2cccc(OC)c2)[C@@H](C)C1)NC(=O)[C@H]1Cc2ccc(O)cc2CN1 | – | 1170 |
| CC[C@H](C)[C@@H](CN1CC[C@@](C)(c2cccc(O)c2)[C@@H](C)C1)NC(=O)[C@@]1(C)Cc2ccc(O)cc2CN1 | – | 149 |
| CC[C@H](C)[C@@H](CN1CC[C@@](C)(c2cccc(OC)c2)[C@@H](C)C1)NC(=O)[C@@]1(C)Cc2ccc(O)cc2CN1 | 59.1 | – |
